Experimental data reported in publication PMC5104480 (PLoS ONE, 2016).

By UniProt entry, the sequences of proteins in these tests, tags left out. Residues count along the entry.
UniProt P19224, 27-532: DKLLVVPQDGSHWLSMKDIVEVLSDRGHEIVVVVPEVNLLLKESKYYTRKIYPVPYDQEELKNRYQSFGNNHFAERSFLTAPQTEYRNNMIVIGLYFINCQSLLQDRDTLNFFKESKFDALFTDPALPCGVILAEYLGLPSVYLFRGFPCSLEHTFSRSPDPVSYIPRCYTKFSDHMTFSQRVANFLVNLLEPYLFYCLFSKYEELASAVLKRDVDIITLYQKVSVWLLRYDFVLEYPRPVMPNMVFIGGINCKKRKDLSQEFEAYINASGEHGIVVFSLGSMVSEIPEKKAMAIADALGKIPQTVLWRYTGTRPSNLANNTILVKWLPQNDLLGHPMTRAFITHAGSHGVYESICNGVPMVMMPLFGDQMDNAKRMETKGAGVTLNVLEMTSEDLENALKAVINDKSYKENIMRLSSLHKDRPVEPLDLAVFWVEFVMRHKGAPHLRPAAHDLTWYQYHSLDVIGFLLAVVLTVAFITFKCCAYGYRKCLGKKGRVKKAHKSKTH

Target: HLMs, UGT1A1, UGT1A6 and UGT1A9 (Homo sapiens, UniProt P19224)
Conditions: substrate diosmetin, compared with control
Description: The protein concentrations of the HLMs and expressed UGTs were 0.0021–0.0106 mg protein/mL. All of the incubations were run at 37°C for 30 min, and the way of pretreated and determined samples were as discribed above.

effect on formation of Dio-7-G: significantly decrease
SMILES: CCCCC1C(=O)N(c2ccccc2)N(c2ccccc2)C1=O [phenylbutazone]
